The entries are a selection whose mix differs from that of the whole data set. Some of these compounds have results that are not shown, active ones among them. Calls of active or inactive are those of the source.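 How the source made its calls: active means activation above the mean activation of all tested compounds plus 3 SD (cut at about 50% in these data); inactive means the rest.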
What follows are molecules tested against Steroidogenic factor 1 (Homo sapiens) (UniProt Q13285) (assay: SF-1 ligand-binding domain transactivation enhancers – cell-based, CHO-K1, Gal4-SF-1 LBD, luciferase luminescence, primary screen (AID 522)). Settings: CHO-K1 Gal4-SF-1 LBD luciferase reporter; at 10 µM; active compounds read high; % increase over DMSO SF-1-specific signal.
Summary of the method: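 Test system: CHO-K1 cells with Gal4–hSF-1 LBD chimera plus Gal4-driven luciferase; Input: 4,000 cells/well; Compound: 10 µM only; Times: 20 h compound treatment, 37 °C; Measured by: steady-glow luciferase luminescence, read after 15 min reagent incubation; Measure: percent activation versus DMSO; Control set: DMSO and mock-transfected background; Replicates: one test per compound.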

Protein sequences, listed by entry. Tags and fused reporters are not part of them.
UniProt Q13285, whole entry: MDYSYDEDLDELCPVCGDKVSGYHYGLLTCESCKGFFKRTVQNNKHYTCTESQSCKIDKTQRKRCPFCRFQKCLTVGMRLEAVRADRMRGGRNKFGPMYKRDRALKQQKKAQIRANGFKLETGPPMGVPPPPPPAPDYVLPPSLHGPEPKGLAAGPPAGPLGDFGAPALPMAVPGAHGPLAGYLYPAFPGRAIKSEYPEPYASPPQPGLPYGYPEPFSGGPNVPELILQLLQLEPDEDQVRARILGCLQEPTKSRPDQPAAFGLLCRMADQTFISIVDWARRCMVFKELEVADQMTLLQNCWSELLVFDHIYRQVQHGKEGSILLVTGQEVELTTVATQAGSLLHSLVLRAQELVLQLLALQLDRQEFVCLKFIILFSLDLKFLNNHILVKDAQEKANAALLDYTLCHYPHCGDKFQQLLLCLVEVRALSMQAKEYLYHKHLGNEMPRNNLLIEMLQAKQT

SMILES	activation
CN(C)c1cccc(C(=O)NCC2(N(C)C)CCCCC2)c1	inactive: 0.4%
O=C(OC1CN2CCC1CC2)C(CO)(c1ccccc1)c1ccccc1 (configuration not stated)	inactive: 4.9%

Source: PubChem BioAssay AID522 (The Scripps Research Institute Molecular Screening Center, 2006)
